PGC1a acetyl inh – modulators of PGC1a acetylation. 0.17% of 350,000 active. inhibition, % at 15.6 µM. U2OS PGC1a acetylation, AlphaScreen anti-acetyl-lysine; with virally co-expressed GCN5 acetyltransferase;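 active = every replicate shows inhibition of at least 40%; inconclusive = mean inhibition at least 40% but some replicate below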;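 note: 0% = neutral control wells and 100% = positive control wells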
Yeast UUG start – modulators of yeast start codon fidelity, primary screen, whole organism, S. cerevisiae, single point, plate reader | AID 602363, 2012 | S. cerevisiae UUG-firefly luciferase reporter, luminescence/redox ratio | activity score, % at 18.7 µM | hit rate 0.13% among 350,000;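 active = replicate mean at a twofold rise or more, about +100% in these data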;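 also: firefly luciferase made from a UUG start codon reports start codon fidelity; reporter light over untreated wells divided by growth signal over untreated wells; some hits fall short of that in this replicate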
PglD inh – blocks C. jejuni PglD acetyltransferase activity; 0.098% of 360,000 active; purified PglD enzyme, DTNB colorimetric CoA detection; AID 602405; inhibition, % at 12.5 µM; in the data active = inhibition above about 16%, passing the limit was not always enough; inconclusive = no clear call, values can overlap the other calls
E-sel inducer – induces E-selectin expression in human endothelial cells; HUVEC E-selectin immunofluorescence imaging; normalized: neutral wells 0, TNF-alpha wells 100; activation, % at 7.58 µM; 0.37% of 260,000 active;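 active = mean E-selectin-positive cell signal at least 10% of the positive control, reached in at least 60% of replicates, without over 20% cell loss; inconclusive = no rule given, readout overlaps actives, possibly toxicity-flagged; inactive = the rest, including those meeting only one limit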
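System: HUVEC / Compound: single concentration / Signal: immunofluorescence imaging / Read-out: percent E-selectin-positive cells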
Statin myotox sup – suppressors of simvastatin-induced myotoxicity in C2C12 myotubes. 0.78% of 330,000 active. AID 602340. rescue of ATP level, % at 7.49 µM. ATP luminescence, 48 h; scaled: DMSO 0, geranylgeraniol control 100;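 active = mean ATP rescue above about 67%, or every replicate alone reaching that limit, limit read from the data, passing the limit was not always enough; inconclusive = no clear call, values can overlap the other calls; inactive = mean under the limit and some replicate under it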;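 note: myotubes were challenged with 10 µM simvastatin during compound exposure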
esBAF inh – SWI/SNF esBAF complex inhibition; AID 602393; mouse ES cells, Bmi1-luciferase knock-in reporter, 24 h; 100% = twice the neutral-well signal; 2% of 350,000 active; reporter increase, % at 12.5 µM; in the data active = activation above about 40%; inconclusive = no clear call, values can overlap the other calls;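 note: 0% = median of the plate's neutral control wells and 100% = double that signal; a rise in the Bmi1 reporter signal indicates esBAF inhibition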
* hit, by the source's call; u = inconclusive; x = no result given; ! = not confirmed by another sample. The list is not random: actives were taken first. Their share in the collection is about 2.8%.

SMILES	PGC1a acetyl inh	Yeast UUG start	PglD inh	E-sel inducer	Statin myotox sup	esBAF inh
CCCC#Cc1ccc2c(c1)O[C@@H](CN(C)C(C)=O)[C@@H](C)CN([C@@H](C)CO)S2(=O)=O	0	6	-1	0	19	3
CCOc1ccc(NC(=O)c2ccc(-c3csc(C)n3)cc2)cc1	x	-3	1	0	-5	7
Cc1nc(-c2ccc(NC(=O)Cc3ccccc3)cc2)cs1	4	-9	6	0	-53	49*
COc1ccc(CC(=O)Nc2ccc(-c3cn4ccccc4n3)cc2)cc1	-5	-15	2	x	111*	31
Cc1nc(-c2ccc(NC(=O)c3ccccc3C)cc2)cs1	18	-11	5	-3	-7	86*
COc1ccc(NC(=O)c2ccc(-c3csc(C)n3)cc2)cc1	5	-20	0	x	-5	41*
COc1ccc(CC(=O)Nc2ccc(-c3cn4ccccc4n3)cc2)cc1OC	-13	-14	3	x	-34	29
CNC[C@@H]1Oc2ccc(NC(=O)C3CC3)cc2CC(=O)N([C@@H](C)CO)C[C@@H]1C	2	x	-3	0	-10	-1
Cc1noc(C)c1NC(=O)Nc1ccc2c(c1)CC(=O)N([C@H](C)CO)C[C@H](C)[C@@H](CN(C)C(=O)Nc1ccc(F)cc1)O2	8	9	-1	10	-2	-5
C[C@@H]1CCCCO[C@H](CN(C)S(=O)(=O)c2ccccc2)[C@H](C)CN([C@H](C)CO)C(=O)c2cc(NC(=O)C3CCCCC3)ccc2O1	2	16	0	0	x	-4
C[C@H](CO)N1C[C@H](C)[C@H](CN(C)S(=O)(=O)c2cn(C)cn2)Oc2c(NC(=O)c3nc4ccccc4s3)cccc2C1=O	3	-3	0	0	-20	1
CCC(C)Sc1nc2c(c(=O)[nH]c(=O)n2C)n1Cc1ccc(Cl)cc1 (stereo not drawn)	21	-5	10	x	130*	-2
CCSc1nc2c(c(=O)[nH]c(=O)n2C)n1C	10	-11	-1	x	-3	-3
CC(C)Sc1nc2c(c(=O)[nH]c(=O)n2C)n1Cc1ccc(Cl)cc1	9	0	-2	x	149*	4
CCCSc1nc2c(c(=O)[nH]c(=O)n2C)n1C	7	-10	-5	x	92*	2
O=C(C[C@H]1CC[C@H]2[C@@H](COC[C@@H](O)CN2C(=O)Nc2cc(Cl)cc(Cl)c2)O1)NCC1CCCCC1	-9	x	4	0	-7	5
COCC(=O)Nc1ccc2c(c1)C(=O)N(C)[C@H]1CC[C@H](CC(=O)O)O[C@@H]1CO2	-7	-5	1	0	1	-1
C[C@@H]1CN([C@H](C)CO)C(=O)c2cc(NS(=O)(=O)c3cn(C)cn3)ccc2O[C@H]1CN(C)C(=O)Nc1ccc2c(c1)OCO2	-4	-5	5	255*	-2	32
C[C@@H]1CN([C@H](C)CO)C(=O)c2cccc(NS(=O)(=O)c3cn(C)cn3)c2O[C@@H]1CN(C)Cc1ccc(Cl)c(Cl)c1	-14	2	4	67*	29	-1
C[C@@H]1CN([C@@H](C)CO)C(=O)c2cc(NS(=O)(=O)c3cn(C)cn3)ccc2O[C@H]1CN(C)C(=O)Nc1ccc2c(c1)OCO2	-1	-4	-16	-2	-28	3
C[C@H](CO)N1C[C@H](C)[C@@H](CN(C)S(=O)(=O)c2cn(C)cn2)Oc2c(NC(=O)Nc3ccc4c(c3)OCO4)cccc2C1=O	33	0	0	0	13	50*!
C[C@H](CO)N1C[C@H](C)[C@@H](CN(C)C(=O)Nc2ccc3c(c2)OCO3)Oc2c(NS(=O)(=O)c3cn(C)cn3)cccc2C1=O	7	-9	-3	-9	10	u
C[C@@H]1CN([C@@H](C)CO)C(=O)c2cccc(NS(=O)(=O)c3cn(C)cn3)c2O[C@H]1CN(C)C(=O)Nc1ccc2c(c1)OCO2	-5	-3	-1	283*	19	33
Cc1cccc(-c2ccc([C@H]3[C@H]4CN(C(=O)Cc5ccccn5)CC(=O)N4[C@H]3CO)cc2)c1	-2	x	x	0	x	x

4 structures from above, ordered by molar mass, highest first.
SMILES	PGC1a acetyl inh	Yeast UUG start	PglD inh	E-sel inducer	Statin myotox sup	esBAF inh
C[C@@H]1CN([C@H](C)CO)C(=O)c2cc(NS(=O)(=O)c3cn(C)cn3)ccc2O[C@H]1CN(C)C(=O)Nc1ccc2c(c1)OCO2	-4	-5	5	255*	-2	32
C[C@@H]1CN([C@H](C)CO)C(=O)c2cccc(NS(=O)(=O)c3cn(C)cn3)c2O[C@@H]1CN(C)Cc1ccc(Cl)c(Cl)c1	-14	2	4	67*	29	-1
COCC(=O)Nc1ccc2c(c1)C(=O)N(C)[C@H]1CC[C@H](CC(=O)O)O[C@@H]1CO2	-7	-5	1	0	1	-1
CC(C)Sc1nc2c(c(=O)[nH]c(=O)n2C)n1Cc1ccc(Cl)cc1	9	0	-2	x	149*	4

Whole records, looked up by structure. Screens in order: PGC1a acetyl inh | Yeast UUG start | PglD inh | E-sel inducer | Statin myotox sup | esBAF inh
Entry for Cc1cccc(-c2ccc([C@H]3[C@H]4CN(C(=O)Cc5ccccn5)CC(=O)N4[C@H]3CO)cc2)c1 → -2 | x | x | 0 | x | x
Entry for CC(C)Sc1nc2c(c(=O)[nH]c(=O)n2C)n1Cc1ccc(Cl)cc1 → 9 | 0 | -2 | x | 149* | 4

Next part
SMILES	PGC1a acetyl inh	Yeast UUG start	PglD inh	E-sel inducer	Statin myotox sup	esBAF inh
CC(C)c1ccc(C(C(C(=O)c2ccccc2)N2CCOCC2)N2CCOCC2)cc1 (stereo not drawn)	-25	x	2	0	5	46*
O=C(COc1ccc(CO)cc1Cl)Nc1ccc(F)cc1	0	-65	-5	x	18	5
COc1ccccc1NC(=O)COc1ccc(CO)cc1Cl	-1	-5	-4	x	75*	51*
Cc1nc(NC2CCCCC2)c2nnn(Cc3ccccc3Cl)c2n1	12	-24	3	x	19	-2
CCc1nc(N2CCC3(CC2)OCCO3)c2nnn(Cc3ccccc3)c2n1	-1	0	-2	2	13	3
Cc1nc(N2CCCC2)c2nnn(Cc3ccccc3Cl)c2n1	4	-8	-2	x	76*	-16
Cc1nc(N2CCC3(CC2)OCCO3)c2nnn(Cc3ccccc3F)c2n1	5	9	0	x	130*	8
C[C@H](NC(=O)C[C@H]1C[C@@H]2c3cc(NC(=O)Cc4ccncc4)ccc3O[C@@H]2[C@H](CO)O1)c1ccccc1	-7	x	-1	0	0	-4
COc1ccc(COC[C@@]23Oc4ccccc4[C@@H](NC(=S)N2C)[C@H]3CO[Si](C)(C)C(C)(C)C)cc1	-30	3	1	x	x	x
CCCC(=O)Nc1ccc2c(c1)C(=O)N(C)C[C@@H](OC)[C@@H](C)CN(Cc1ccccc1F)[C@H](C)CO2	-9	2	-3	0	29	1
O=C1c2ccccc2C(=O)C1c1ccc(O)cc1	0	-23	1	x	7	59*
Cc1ccc(S(=O)(=O)Nc2ccc3c(c2)CC(=O)N([C@H](C)CO)C[C@H](C)[C@H](CN(C)C(=O)Nc2ccc(C(F)(F)F)cc2)O3)cc1	-1	0	3	x	-14	-6
CC(C)c1ccc(NC(=O)c2cc(Br)ccc2Br)cc1	x	x	x	x	-6	72*
C=CCn1c(SCC(=O)Nc2nc3ccccc3s2)nc(O)c(CC)c1=O	-9	-25	10	33*	x	x
Cc1cccc2c1-c1sc(C(=O)N3CCCCC3)cc1CO2	7	18	-5	0	4	68*
CCOC(=O)N1CCN(C(=O)c2cc3c(s2)-c2c(C)cccc2OC3)CC1	2	-12	-3	x	-10	-4
COc1ccc(Cl)cc1NC(=O)C[n+]1ccccc1	-1	13	0	x	-2	-3
O=C(O)CC(=O)Nc1cc(Cl)ccc1O	1	-24	-3	x	-2	-8
CCOC(=O)CC(=O)Nc1cc(Cl)ccc1O	5	-12	1	x	84*	0
COc1ccc(Cl)cc1NC(=O)CC(C)=O	-4	-5	0	x	92*	-6

High-throughput results (PubChem BioAssay)
